# Reference: paper PMC3403872, “Contrasting effects of linaclotide and lubiprostone on restitution of epithelial cell barrier properties and cellular homeostasis after exposure to cell stressors” (BMC Pharmacology, 2012)
# Only a part of the results on these compounds is given; other tests are left out.
# Tested on: guanylate cyclase, GC-C (T84 cells)
# Assay: [cGMP]i in T84 cells
# Conditions: positive control, 1 μM NaNP, compared with linaclotide
substance,measurement,value
Sodium nitroprusside,[cGMP]i level relative to linaclotide,much higher levels of [cGMP]i
